Earlier results as cited in US20080249317A1, “Novel amorphous form of carvedilol phosphate and processes for the preparation thereof” (APOTEX INC., priority 2007, published 2008).

Conditions: as taught in WO 2004/002419, US 2005/0169994 and US 2006/0182804; cited from earlier work

## carvedilol phosphate [crystalline carvedilol phosphate]
  solubility characteristics: purportedly superior
